An excerpt weighted towards active compounds, which were near 2.1% of everything screened.
ERp5 block: inhibitors of ERp5-driven insulin aggregation, primary screen, biochemical, turbidity, absorbance 650 nm, single point; 350,000 tested, 0.05% active; inhibition, % at 9.99 µM; Protein disulfide-isomerase A6 (Homo sapiens), Q15084; 90 min;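 active = mean replicate inhibition above about 25%, with every replicate also reaching it, limit read from the data, passing the limit was not always enough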
Rev-erbA mod: modulators of Rev-erb alpha DNA binding, primary screen, biochemical, FITC-DNA, fluorescence polarization, uHTS; 370,000 tested, 0.79% active; AID 1259318, 2017; activity, % at 10 µM; Nuclear receptor subfamily 1 group D member 1 (Homo sapiens), P20393; Rev-erbα–FITC-DNA binding, 90 min;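 active = activity above about 14%, limit read from the data; passing the limit was not always enough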
SMARCA2 activ: SMARCA2 (BRM) function activators, primary screen, cell-based, luminescence, high throughput; MG213 cells, MMTV-luciferase reporter, dexamethasone, overnight; activation, % at 9.1 µM; 370,000 tested, 1% active; AID 652017, 2013; in the data active = activation above about 7.8%
PDI turbidity: inhibitors of human PDI, primary screen, biochemical, turbidity, single point, plate reader | inhibition, % at 10 µM | 350,000 tested, 0.052% active | Protein disulfide-isomerase (Homo sapiens), P07237 | PDI insulin aggregation turbidity, A650, 90 min;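 active = mean inhibition across replicates of 30% or more, whatever share of single replicates reach that level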
Yeast UUG start: alters start codon recognition fidelity in yeast | S. cerevisiae UUG-firefly luciferase reporter, luminescence/redox ratio | activity score, % at 18.7 µM | hit rate 0.13% among 350,000 | AID 602363;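 active means replicate mean at a twofold rise or more, about +100% in these data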;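 further: firefly luciferase made from a UUG start codon reports start codon fidelity; reporter light over untreated wells divided by growth signal over untreated wells; some hits fall short of that in this replicate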
GSIS activator: GLuc luminescence reporter in INS-1E cells, primary screen for activators of glucose-dependent secretion of insulin; 370,000 tested, 0.61% active; activation, % at 16.6 µM; INS-1E GLuc reporter insulin secretion, 2-3 h;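 active = lowest replicate activation of at least 40%, so every replicate reaches that level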
Large screens that a line does not name were inactive.

Sequences of proteins named here, by UniProt entry; tags and fusion partners are left off.
Protein disulfide-isomerase A6 (Homo sapiens), Q15084, UniProt Q15084, whole entry, looked up: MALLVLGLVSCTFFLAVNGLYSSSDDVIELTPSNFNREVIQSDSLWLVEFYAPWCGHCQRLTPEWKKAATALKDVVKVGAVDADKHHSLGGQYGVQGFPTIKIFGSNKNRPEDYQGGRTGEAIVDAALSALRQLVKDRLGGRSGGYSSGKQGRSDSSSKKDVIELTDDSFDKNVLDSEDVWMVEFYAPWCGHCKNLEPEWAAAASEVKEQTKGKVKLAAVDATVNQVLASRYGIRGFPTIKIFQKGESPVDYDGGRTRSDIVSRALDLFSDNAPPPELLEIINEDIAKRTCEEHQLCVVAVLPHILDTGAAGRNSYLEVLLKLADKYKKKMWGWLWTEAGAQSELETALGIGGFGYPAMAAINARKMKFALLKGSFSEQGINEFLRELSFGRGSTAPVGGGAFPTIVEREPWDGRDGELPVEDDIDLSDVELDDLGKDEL

C=CCNc1ncnc2c1ncn2[C@H]1CN(Cc2ccccc2)C[C@@H](CO)O1	none
C=CCNc1ncnc2c1ncn2[C@H]1CN(Cc2cccc3ccccc23)C[C@@H](CO)O1	PDI turbidity 39.2 (no result: GSIS activator)
CCC(=O)N(C)C[C@@H]1Oc2cc(-c3ccccc3)ccc2S(=O)(=O)N([C@H](C)CO)C[C@@H]1C	none (no result: Rev-erbA mod, SMARCA2 activ, PDI turbidity)
COc1ccc(-n2c(N)c(C(=O)NCc3ccco3)c3nc4ccccc4nc32)cc1OC	SMARCA2 activ 8.4 (no result: ERp5 block, Yeast UUG start)
COc1cc(-n2c(N)c(C(=O)NCc3ccco3)c3nc4ccccc4nc32)cc(OC)c1OC	none (no result: Yeast UUG start)
O=C(c1ccccn1)N1CC[C@@H]2[C@H]1c1cc(C#Cc3ccccc3)ccc1N[C@@H]2CO	none (no result: Rev-erbA mod, SMARCA2 activ, PDI turbidity)
COc1ccc(-c2nc(CC(=O)O)cs2)cc1OC	none (no result: ERp5 block, PDI turbidity, Yeast UUG start, GSIS activator)
CCOC(=O)c1csc(-c2ccc(OC)c(OC)c2)n1	GSIS activator 50.5 (no result: Yeast UUG start)
COc1ccc(-c2nc(C(=O)O)cs2)cc1OC	GSIS activator 71.4 (no result: Yeast UUG start)
C=C1CC2C3C=C(C)C4=CC(=O)CC[C@]4(C)C3CC[C@]2(C)[C@@]1(OC(C)=O)C(C)=O (stereo partly drawn)	none (no result: ERp5 block, SMARCA2 activ, PDI turbidity, Yeast UUG start, GSIS activator)
COc1cccc(CN(C)Cc2cc(=O)oc3c(C)c(C)ccc23)c1	none
Cc1ccccc1CN(C)Cc1cc(=O)oc2c(C)c(C)ccc12	GSIS activator 92.8
CCN(CCO)Cc1csc2ccccc12	none (no result: Yeast UUG start)
CCN(CCO)Cc1csc2cc(C)ccc12	GSIS activator 47.2 (no result: Yeast UUG start)
C[C@@H]1CN([C@@H](C)CO)C(=O)c2cc(C#CC3CC3)cnc2O[C@@H]1CN(C)C(=O)Nc1ccc(F)cc1	none (no result: Rev-erbA mod, SMARCA2 activ, PDI turbidity)
COc1ccc(/C=C/C(=O)NC(=S)Nc2ccccc2)cc1OC	none
COc1ccc(/C=C/C(=O)NC(=S)Nc2ccc(S(N)(=O)=O)cc2)cc1OC	GSIS activator 44.1
COC(=O)c1scc(C)c1NC(=O)CC1NCCNC1=O (stereo not drawn)	GSIS activator 60.4
CCc1csc(CCNC(=O)C2CCC(=O)N(CCc3cccc(F)c3)C2)n1 (stereo not drawn)	ERp5 block 28.3
CCOc1ccccc1OCCC(=O)NNC(=O)Cn1nc(C)cc1C	GSIS activator 52.7
Cc1cccc(OCCC(=O)NNC(=O)Cn2nc(C)cc2C)c1	none
CCCCn1c(=O)[nH]c(=O)c2c1nc(-c1ccc([N+](=O)[O-])cc1)n2CC	GSIS activator 190.8
CCCCn1c(-c2ccsc2)nc2c1c(=O)[nH]c(=O)n2CCC	none (no result: ERp5 block, GSIS activator)
C=CCOc1ccc(-c2nc3c(c(=O)[nH]c(=O)n3CCCC)n2C)cc1Br	GSIS activator 50.5
CC(=O)N(C)C[C@H]1Oc2cc(C#Cc3cccc(F)c3)ccc2S(=O)(=O)N([C@@H](C)CO)C[C@H]1C	none (no result: Rev-erbA mod, SMARCA2 activ, PDI turbidity)
CCCCCCn1c(-c2cccs2)n[nH]c1=S	GSIS activator 45.8
CCCCn1c(-c2csc3ccccc23)n[nH]c1=S	none (no result: ERp5 block)
CCC(CC)NC(=O)CO/N=C/c1ccc(Cl)cc1Cl	SMARCA2 activ 7.9 (no result: Yeast UUG start)
COc1ccc(S(=O)(=O)N[C@@H]2C=C[C@H](CC(=O)N3CCc4ccccc4C3)O[C@H]2CO)cc1	none (no result: Rev-erbA mod, SMARCA2 activ, PDI turbidity)
CCN(CC)C(=O)c1sc(NC(=O)c2ccoc2C)c(C(=O)OC)c1C	none (no result: ERp5 block, GSIS activator)
CCOC(=O)c1c(NC(=O)c2ccoc2C)sc(C(=O)N(C)C)c1C	GSIS activator 46.9 (no result: ERp5 block)
COCCN(CC(=O)NC1CCCCC1)C(=O)/C=C/C(=O)c1ccc(OC)cc1O	GSIS activator 49.1 (no result: Yeast UUG start)
C#CC(=O)CC1(CN(Cc2ccccc2)C(=O)OC(C)(C)C)CCCCC1	GSIS activator 53.9
CN1CCc2cc3c(c4c2[C@H]1[C@H](O)c1ccccc1-4)OCO3	SMARCA2 activ 9.3 (no result: GSIS activator)
Cc1ccc(S(=O)(=O)N(C)C[C@@H]2OCCCC[C@H](C)Oc3ccc(NC(=O)c4ccccc4)cc3C(=O)N([C@@H](C)CO)C[C@H]2C)cc1	none (no result: Rev-erbA mod, SMARCA2 activ, PDI turbidity)
CC(C)Cc1nc2sc3c(=O)n(N)cnc3c2c2c1COC(C)(C)C2	none
CC(C)Cc1nc2n[nH]c(N)c2c2c1COC(C)(C)C2	GSIS activator 80.2 (no result: ERp5 block, Yeast UUG start)
CO[C@H]1CC[C@H]2CCN(C)C(=O)[C@@H](C)N(C)C(=O)c3cc(C#N)ccc3OC[C@@H]1O2	none (no result: Rev-erbA mod, SMARCA2 activ, PDI turbidity, Yeast UUG start)
O=C(C1CC1)N1CC(=O)N2[C@H](C1)[C@@H](c1ccc(C#CC3CCCC3)cc1)[C@@H]2CO	none (no result: Rev-erbA mod, SMARCA2 activ, PDI turbidity, Yeast UUG start)
COc1ccccc1N=Nc1[nH]c2ccc(C)cc2c1O	SMARCA2 activ 7.9 (no result: ERp5 block, Yeast UUG start)
Cc1ccccc1S(=O)(=O)NCC[C@H]1CC[C@@H](NC(=O)C2CCOCC2)[C@@H](CO)O1	none (no result: Rev-erbA mod, SMARCA2 activ, PDI turbidity)
CN1C(=O)NC(c2ccc(O)cc2)C2=C1CN(c1ccccc1)C2=O (stereo not drawn)	GSIS activator 42.7
c1ccc(-c2noc(-c3cccnc3)n2)cc1	SMARCA2 activ 7.9 (no result: ERp5 block, GSIS activator)
c1ccc(-c2ccc(-c3nc(-c4cccnc4)no3)cc2)cc1	none (no result: ERp5 block, GSIS activator)
O=C(C[C@@H]1CC[C@H]2[C@@H](COC[C@H](O)CN2S(=O)(=O)c2cccc(F)c2)O1)Nc1ccccc1	none (no result: Rev-erbA mod, SMARCA2 activ, PDI turbidity, Yeast UUG start)
Cc1ccccc1S(=O)(=O)N1C[C@@H](O)COC[C@H]2O[C@H](CC(=O)O)CC[C@@H]21	none (no result: Rev-erbA mod, SMARCA2 activ, PDI turbidity, Yeast UUG start)
COc1ccc(CCn2nnc(-c3ccc(NC(C)=O)c(Cl)c3)n2)cc1	GSIS activator 80.6 (no result: ERp5 block)
CCN=C1NC(c2ccc(C(F)(F)F)cc2)C(C(=O)OC)=C(C)N1Cc1cccc(C(F)(F)F)c1 (stereo not drawn)	GSIS activator 41.4 (no result: PDI turbidity, Yeast UUG start)
COC(=O)C1=C(C)N(Cc2ccc(C(F)(F)F)cc2)C(=NCc2ccccc2)NC1c1cccc(C(F)(F)F)c1 (stereo not drawn)	GSIS activator 158.3 (no result: PDI turbidity, Yeast UUG start)
CCN=C1NC(c2ccc(F)cc2)C(C(=O)OC)=C(C)N1Cc1cccc(C(F)(F)F)c1 (stereo not drawn)	none (no result: PDI turbidity, Yeast UUG start)
COC(=O)C1=C(C)N(Cc2cccc(C(F)(F)F)c2)C(=NCC2CC2)NC1c1cccc(Cl)c1 (stereo not drawn)	none (no result: PDI turbidity, Yeast UUG start, GSIS activator)
COC(=O)C1=C(C)N(Cc2cccc(C(F)(F)F)c2)C(=NCc2ccc(C(F)(F)F)cc2)NC1c1ccc(Cl)cc1 (stereo not drawn)	none (no result: PDI turbidity, Yeast UUG start, GSIS activator)
COC(=O)C1=C(C)N(Cc2cccc(C(F)(F)F)c2)C(=NCC2CC2)NC1c1cccc(C(F)(F)F)c1 (stereo not drawn)	GSIS activator 420.4 (no result: PDI turbidity, Yeast UUG start)
COC(=O)C1=C(C)N(Cc2cccc(C(F)(F)F)c2)C(=NCc2ccc3c(c2)OCO3)NC1c1ccc(Cl)cc1 (stereo not drawn)	GSIS activator 145.9 (no result: PDI turbidity, Yeast UUG start)
Cc1noc(C)c1NC(=O)NCC[C@H]1CC[C@@H](NC(=O)c2ccccc2)[C@H](CO)O1	none (no result: Rev-erbA mod, SMARCA2 activ, PDI turbidity)
